This passage reports EC50 results from PMC9102038 (International Journal of Molecular Sciences, 2022).

Protein sequences, listed by entry. Tags and fused reporters are not part of them. Residues count along the entry.
UniProt P37231, 231-505: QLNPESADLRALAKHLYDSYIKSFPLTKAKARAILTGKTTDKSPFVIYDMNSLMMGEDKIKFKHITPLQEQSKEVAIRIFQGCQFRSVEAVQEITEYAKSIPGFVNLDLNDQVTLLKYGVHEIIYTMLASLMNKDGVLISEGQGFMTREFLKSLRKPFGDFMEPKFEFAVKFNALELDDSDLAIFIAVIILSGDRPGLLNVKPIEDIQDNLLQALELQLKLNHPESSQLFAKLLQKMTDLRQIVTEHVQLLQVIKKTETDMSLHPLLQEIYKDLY
UniProt P37231, 238-503 limits assumed, stated change not applied: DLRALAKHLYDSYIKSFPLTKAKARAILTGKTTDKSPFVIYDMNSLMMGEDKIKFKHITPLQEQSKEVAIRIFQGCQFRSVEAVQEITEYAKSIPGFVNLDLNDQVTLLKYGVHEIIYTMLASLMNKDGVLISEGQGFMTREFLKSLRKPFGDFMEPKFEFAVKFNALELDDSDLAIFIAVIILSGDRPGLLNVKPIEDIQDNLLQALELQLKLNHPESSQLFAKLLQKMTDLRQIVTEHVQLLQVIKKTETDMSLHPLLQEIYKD

In assay [1] the target is T1, human PPARγ-LBD (Homo sapiens, UniProt P37231). The experiment in a line: TR-FRET PGC1α coactivator peptide recruitment assay, PPARγ-LBD. The note with it: read-out: EC50, PGC1α recruitment to PPARγ-LBD, cell-free. (Time-resolved FRET reads energy transfer from a long-lived donor to a nearby acceptor.)
Assay [2] has as its target T1, human PPARγ-LBD. Nature of the assay: TR-FRET SRC1 coactivator peptide recruitment assay, PPARγ-LBD. The following applies: read-out: EC50, SRC1 recruitment to PPARγ-LBD, cell-free.
Assay [3] deals with GAL4–human PPARγ-LBD chimera (Homo sapiens, UniProt P37231). Nature of the assay: GAL4–hPPARγ-LBD dual luciferase transactivation assay in COS-7 cells. The note with it: read-out: EC50, PPARγ-LBD-mediated transactivation, 10 h treatment.

In general, EC50 refers to the concentration giving half of the maximal effect. Take GW1929: the results for the 50% effective concentration (EC50) (on human PPARγ-LBD [1]; at human PPARγ-LBD [2]; in assay [3]) were 32.2 nM, 75.6 nM and 18.3 nM, respectively.
